This test concerns the target Escherichia coli GUS (EcGUS) (Escherichia coli, UniProt P05804). Briefly: EcGUS inhibition assay. It is filed as biochemical. To be noted: read-out: IC50 against EcGUS; pNPG 250 µM, PBS pH 7.4, 37 °C, 30 min.

Protein sequences, listed by entry. Tags and fused reporters are not part of them. Lines headed by an entry give the natural chain unless they say otherwise; changes in a name come on top.
UniProt P05804: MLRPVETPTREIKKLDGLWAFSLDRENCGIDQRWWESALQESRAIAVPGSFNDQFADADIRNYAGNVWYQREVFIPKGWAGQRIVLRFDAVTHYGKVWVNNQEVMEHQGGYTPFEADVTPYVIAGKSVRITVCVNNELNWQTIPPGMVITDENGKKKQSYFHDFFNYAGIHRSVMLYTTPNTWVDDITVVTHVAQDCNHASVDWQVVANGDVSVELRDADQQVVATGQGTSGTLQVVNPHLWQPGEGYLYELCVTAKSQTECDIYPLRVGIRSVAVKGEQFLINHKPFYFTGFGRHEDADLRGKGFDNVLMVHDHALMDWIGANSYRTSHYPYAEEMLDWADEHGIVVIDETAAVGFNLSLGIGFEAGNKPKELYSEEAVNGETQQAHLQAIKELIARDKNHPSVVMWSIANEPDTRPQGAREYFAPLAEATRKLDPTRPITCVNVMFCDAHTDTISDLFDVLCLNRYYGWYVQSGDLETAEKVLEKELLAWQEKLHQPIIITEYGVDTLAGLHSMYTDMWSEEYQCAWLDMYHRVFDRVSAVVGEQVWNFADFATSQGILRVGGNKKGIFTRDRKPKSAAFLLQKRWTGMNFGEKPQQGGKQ

One may read the IC50 as the point on the concentration scale where inhibition reaches its midpoint. Regarding acetylacteoside, the IC50 was 6.6 µM.

(Values after publication PMC7717682 (Journal of Enzyme Inhibition and Medicinal Chemistry, 2020).)
